Assay [1] concerns the target T1, human CRHR2b (Homo sapiens, UniProt Q13324).
T1 construct: expressed in transfected cells; host or cells: Chinese Hamster Ovary (CHO) cells, transient transfection
T1 sequence (Q13324 1-438 isoform Q13324-2): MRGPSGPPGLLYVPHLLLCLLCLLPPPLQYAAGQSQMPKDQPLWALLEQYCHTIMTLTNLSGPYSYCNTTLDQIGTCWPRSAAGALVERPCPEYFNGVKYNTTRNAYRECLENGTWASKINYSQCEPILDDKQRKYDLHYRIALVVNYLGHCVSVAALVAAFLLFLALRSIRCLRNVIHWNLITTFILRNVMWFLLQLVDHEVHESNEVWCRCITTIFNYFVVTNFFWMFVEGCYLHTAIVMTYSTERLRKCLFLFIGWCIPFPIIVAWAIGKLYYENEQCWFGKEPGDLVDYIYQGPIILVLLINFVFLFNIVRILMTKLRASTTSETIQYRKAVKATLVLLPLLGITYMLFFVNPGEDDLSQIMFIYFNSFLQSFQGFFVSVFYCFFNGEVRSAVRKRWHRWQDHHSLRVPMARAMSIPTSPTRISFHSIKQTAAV
Description: human CRHR2b cell-based cAMP assay. As to conditions: CHO cells transfected with human CRHR2b, mean ± SEM of runs, read-out: hCRHR2b Average EC50. The procedure: CRHR agonistic activity is measured in a cell-based cAMP assay. Serial dilutions of the test peptides are made in assay buffer containing Hank's Balanced Salt Solution (HBSS, without phenol red) supplemented with 20 mM HEPES and 0.05% lactalbumin enzymatic hydrolysate (LAH) (“assay buffer”). […] A one to three dilution of the test peptides is used in both assays. Receptor over-expressing Chinese Hamster Ovary (CHO) cell line is used for the human CRHR2b assay. […] AF011406.1). Forty-eight hours after the transfection, the cells are centrifuged to remove the culture media and resuspended in fetal bovine serum containing 5% DMSO. They are cryofrozen and stored in vials in liquid nitrogen (20×10^6 cells/ml/vial). On the day of the assay, cells are thawed and resuspended in cold 30 ml culture media supplemented with 20 mM HEPES. The cells are then centrifuged to remove the media and washed once with HBSS supplemented with 20 mM HEPES. Finally, following the last centrifugation, the cells are resuspended in assay buffer. […] The agonist induced cAMP levels are detected using a HTRF cAMP Dynamic 2 kit (CisBio, Bedford, Mass.). […] HTRF detection is performed on an Envision plate reader (Perkin Elmer Life and Analytical Sciences, Waltham, Mass.) by measuring ratiometric emission at 620 and 665 nm after excitation at 320 nm. […] The data are analyzed using a Curve Fitting Tool to calculate ED50. […]
On the technique in general: cAMP levels reflect the balance of adenylyl cyclase and phosphodiesterase activity.

Assay [2] concerns the target T2, human CRHR1 (Homo sapiens, UniProt P34998).
T2 construct: which expresses endogenous human CRHR1; host or cells: Y79 human retinoblastoma cells
T2 sequence (P34998 24-415): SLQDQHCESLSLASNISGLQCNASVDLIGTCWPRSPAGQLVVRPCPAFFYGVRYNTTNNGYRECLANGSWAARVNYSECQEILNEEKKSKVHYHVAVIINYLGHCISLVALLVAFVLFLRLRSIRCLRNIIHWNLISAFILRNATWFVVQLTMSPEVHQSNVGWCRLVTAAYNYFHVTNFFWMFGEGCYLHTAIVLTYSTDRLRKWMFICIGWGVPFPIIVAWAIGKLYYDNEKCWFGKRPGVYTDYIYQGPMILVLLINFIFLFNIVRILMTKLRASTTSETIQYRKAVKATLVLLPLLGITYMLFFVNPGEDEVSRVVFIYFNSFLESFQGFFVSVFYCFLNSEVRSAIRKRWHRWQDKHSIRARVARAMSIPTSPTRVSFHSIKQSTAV
The assay is described as follows: human CRHR1 cell-based cAMP assay (Y79 cells). As to conditions: Y79 cells with endogenous human CRHR1, mean ± SEM of runs, read-out: hCRHR1 Average EC50. The procedure: CRHR agonistic activity is measured in a cell-based cAMP assay. Serial dilutions of the test peptides are made in assay buffer containing Hank's Balanced Salt Solution (HBSS, without phenol red) supplemented with 20 mM HEPES and 0.05% lactalbumin enzymatic hydrolysate (LAH) (“assay buffer”). The highest concentration that is used starts from 1 μM in the human CRHR2b, whereas 100 μM starting concentration is used in the human CRHR1 assay. A one to three dilution of the test peptides is used in both assays.
The human Retinoblastoma cell line Y79 (ATCC #HTB-18), which expresses endogenous human CRHR1, is used in the human CRHR1 assay. […]
The cells are dispensed into Costar 96-well black polystyrene half area EIA/RIA plates (Corning Incorporated, Corning, N.Y.) followed by the addition of the diluted peptides, each at a volume of 20 μL. The agonist induced cAMP levels are detected using a HTRF cAMP Dynamic 2 kit (CisBio, Bedford, Mass.). […] HTRF detection is performed on an Envision plate reader (Perkin Elmer Life and Analytical Sciences, Waltham, Mass.) by measuring ratiometric emission at 620 and 665 nm after excitation at 320 nm.
The data are converted to picomoles of cAMP using a standard curve obtained from the same assay performed with varying concentrations of unlabeled cAMP. […] The data are analyzed using a Curve Fitting Tool to calculate ED50. […]

A word on the EC50: it is the concentration giving half of the maximal effect.

Take `CC[C@H](C)[C@H](N)C(=O)N[C@H](C(=O)N[C@@H](CC(C)C)C(=O)N[C@@H](CO)C(=O)N[C@@H](CC(C)C)C(=O)N[C@@H](CC(=O)O)C(=O)N[C@H](C(=O)N1CCC[C@H]1C(=O)N[C@H](C(=O)NCC(=O)N[C@@H](CC(C)C)C(=O)N[C@@H](CC(C)C)C(=O)N[C@@H](CCC(N)=O)C(=O)N[C@H](C(=O)N[C@@H](CC(C)C)C(=O)N[C@@H](CC(C)C)C(=O)N[C@@H](CCC(=O)O)C(=O)N[C@@H](CCC(N)=O)C(=O)N[C@@H](C)C(=O)N[C@@H](CCCNC(=N)N)C(=O)N[C@@H](C)C(=O)N[C@@H](CCCNC(=N)N)C(=O)N[C@@H](C)C(=O)N[C@@H](C)C(=O)N[C@@H](CCCNC(=N)N)C(=O)N[C@@H](CCC(=O)O)C(=O)N[C@@H](CCC(N)=O)C(=O)N[C@@H](C)C(=O)N[C@H](C(=O)N[C@H](C(=O)N[C@@H](CC(N)=O)C(=O)N[C@@H](C)C(=O)N[C@@H](CCCNC(=N)N)C(=O)N[C@H](C(=O)N[C@@H](CC(C)C)C(=O)N[C@@H](C)C(=O)N[C@@H](CCCNC(=N)N)C(=O)N[C@H](C(N)=O)C(C)C)[C@@H](C)CC)[C@@H](C)O)[C@@H](C)O)[C@@H](C)CC)[C@@H](C)CC)C(C)C)C(C)C` [hUCN2, reference compound]: the concentration for a half-maximal effect (EC50) in assay [1] was 0.19 ± 0.12 nM; in assay [2], greater than 100000 nM.

The values are drawn from US10894817B2, “Fatty acid modified urocortin-2 analogs for the treatment of diabetes and chronic kidney disease” (priority 2016, dated 2021).
